Experimental data: PMC8469090 (Pharmaceutics, 2021)
Like-named read-outs stand apart in the source and are kept apart here.

What was measured:
[1] = Younger Patients (<65 years), n = 12, i.v. 15,000 IU/m^2, AVG
Method: For blood collection, 12 patients younger than 65 years were eligible. […] Samples were centrifuged at 1882× g for 10 min at room temperature. Plasma was carefully transferred to a new Eppendorf tube and stored at −20 °C until analysis.
Plasma samples were prepared for analysis by protein precipitation and phospholipid removal using Ostro™ 96-well plates (Waters Corp., Milford, MA, USA). A 200-µL plasma sample was added to the 2-mL well, followed by 600 µL acetonitrile with 0.1% formic acid and internal standard epirubicin at a final concentration of 0.05 µg/mL. The mixture was then aspirated three times with a pipette and pushed through the Ostro^TM sorbent at 60 psi N2 for 5 min. The extract was finally filtered through a 0.2-µm regenerated cellulose filter and analyzed by liquid chromatography coupled to tandem mass spectrometry (LC-MS/MS).
The flow rate was 0.3 mL/min.
We determined the following pharmacokinetic parameters: the area under the plasma concentration-time curve (AUC), which was calculated using the trapezoid method from time 0 to 40 min after single bolus intravenous injection (AUC 0 → 40), and plasma clearance (Cl) was calculated as follows:(1) Cl=dose/AUC 0→40
The elimination rate constant kel was determined from the slope of ln (concentration) versus the time curve, and half-life was calculated using the following:(2) t ½=ln2/kel and volume of distribution (Vd) (3) Vd=t ½/ln2×Cl

[2] = Older Patients (>65 years), n = 24, i.v. 15,000 IU/m^2, AVG, cited from earlier work

bleomycin
t1/2 ([1]; 40 min post-injection, SEM 2.10, 95% CI 20.22-29.46): 24.84 min | Plasma Clearance Cl ([1]; dose/AUC 0→40, SEM 261.0, 95% CI 424.6-1574.0): 999.1 mL/min | AUC 0 → 40 ([1]; trapezoid method, SEM 7.90, 95% CI 33.44-68.22): 50.83 µg·min/mL | Vd ([1]; t½/ln2×Cl, SEM 6.24, 95% CI 18.44-45.90): 32.17 L | t1/2 ([2]; SEM 1.79, 95% CI 25.69-33.10): 29.4 min | Vd ([2]; SEM 2.65, 95% CI 10.42-21.37): 15.9 L | AUC 0 → 40 ([2]; SEM 7.899, 95% CI 79.55-92.49): 86.02 µg·min/mL | Plasma Clearance Cl ([2]; SEM 15.83, 95% CI 278.6-344.1): 311.3 mL/min
